# Values of other authors as cited in article PMC6048117 (Scientific Reports, 2018).
substance,measurement,value
glucose-dependent insulinotropic polypeptide [GIP],Half-life,less than 5 min
